From US8580814B2, “Methods of using (+)-1,4-dihydro-7-[(3S,4S)-3-methoxy-4-(methylamino)-1-pyrrolidinyl]-4- oxo-1-(2-thiazolyl)-1,8-naphthyridine-3-carboxylic acid for treatment of cancer” (priority 2006, dated 2013)

What was measured:
Format in all cases: cell-based
[1] = system: HCT-116 cells with 6 fold lower ATR levels; experiment: MTT assay, sensitization (ATRFLOX); settings: compound 72 hours
Procedure: (§1) Cells were then incubated with 5% MTT for 1-2 hours and lysed. MTT was colorimetrically read at 570 nm and EC50's were determined using linear regression analysis.
(§2) Sensitization was carried out with various chemical treatments.

[2] = system: HCT-116 cells treated with 2 mM caffeine; experiment: MTT assay, sensitization (caffeine); settings: 2 mM caffeine pre-treated for 16 hours, compound 72 hours
Procedure: as §1, §2

[3] = system: MO59J (DNAPKcs(−/−)) vs MO59K (DNAPKCs(+/+)); experiment: MTT assay, sensitization (DNAPKcs(−/−)); settings: compound 72 hours
Procedure: as §1, §2

Substance: bleomycin
- Sensitization, fold decrease in the EC50 for cytotoxicity (MTT): ATRFLOX [1]: 1 fold
- Sensitization, fold decrease in the EC50 for cytotoxicity (MTT): Caffeine [2]: 10 fold
- Sensitization, fold decrease in the EC50 for cytotoxicity (MTT): DNAPKcs(−/−) [3]: 4 fold
